Data as given in PMC2918654 (Bioorganic & medicinal chemistry, 2010).

Amino acid sequences for entries named in this document (tags omitted). A change or cut given only in a name is not applied to a line headed by its entry.
UniProt P32300, whole entry: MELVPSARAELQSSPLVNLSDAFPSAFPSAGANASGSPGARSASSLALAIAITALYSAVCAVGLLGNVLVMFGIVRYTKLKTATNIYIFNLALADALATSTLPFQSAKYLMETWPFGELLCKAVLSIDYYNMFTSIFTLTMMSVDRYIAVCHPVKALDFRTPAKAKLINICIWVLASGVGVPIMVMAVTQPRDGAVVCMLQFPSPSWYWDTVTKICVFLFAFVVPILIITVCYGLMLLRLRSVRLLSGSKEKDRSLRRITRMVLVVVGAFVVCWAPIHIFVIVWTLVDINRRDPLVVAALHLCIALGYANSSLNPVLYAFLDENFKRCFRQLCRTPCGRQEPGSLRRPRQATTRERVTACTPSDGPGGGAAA
UniProt P33533, whole entry: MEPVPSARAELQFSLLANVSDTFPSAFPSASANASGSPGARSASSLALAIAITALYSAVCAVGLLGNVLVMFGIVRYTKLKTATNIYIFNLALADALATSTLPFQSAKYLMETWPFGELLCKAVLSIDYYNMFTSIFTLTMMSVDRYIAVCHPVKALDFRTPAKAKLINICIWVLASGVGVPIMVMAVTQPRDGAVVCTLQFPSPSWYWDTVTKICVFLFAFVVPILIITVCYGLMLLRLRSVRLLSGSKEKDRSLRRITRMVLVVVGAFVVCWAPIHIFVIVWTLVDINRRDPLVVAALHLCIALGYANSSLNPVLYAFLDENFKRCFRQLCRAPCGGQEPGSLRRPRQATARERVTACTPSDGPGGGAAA

Columns and labels:
δ-opioid receptor = δ-opioid receptor (Mus musculus, UniProt P32300); assay: Electrically stimulated mouse vas deferens; format: cell-based
δ-opioid receptors = δ-opioid receptors (Rattus norvegicus, UniProt P33533); settings: from affinity data, ref Guerrini et al.[17]; cited from earlier work

In the case of `CC(C)[C@H](NC(=O)[C@H](CCC(=O)O)NC(=O)[C@H](Cc1ccccc1)NC(=O)[C@@H](C)NC(=O)[C@@H](N)Cc1ccc(O)cc1)C(=O)N[C@H](C(=O)NCC(N)=O)C(C)C` [Compound 9, H-Tyr-D-Ala-Phe-Glu-Val-Val-Gly-NH2], the IC50 (δ-opioid receptor) is listed as 0.53 ± 0.02 nM and the “selectivity Ki^μ/Ki^δ” value (δ-opioid receptors) is listed as 5317.
